Experimental data as given in patent publication US20220040230A1, “COMPOSITIONS AND METHODS FOR IMMUNOTHERAPIES” (The Regents of the University of California, priority 2018, published 2022).

Tested on: OSCCs
Assay: 4-hour 51Cr release cytotoxicity / ADCC assay against OSCCs
Type: cell-based, human
Experimental: The target cells (5×10^5) were labeled with 50 μCi ^51Cr (Perkin Elmer, Santa Clara, Calif.) and chromated for 1 hour. Following incubation, target cells were washed once to remove excess unbound ^51Cr. Cells were resuspended in 1×10^6/mL and the treated with the anti-MICA/MICB antibody or Cetaximab (3 μg/mL) and incubated for 30 minutes. Following incubation, target cells were washed again to remove excess unbound antibody and ^51Cr. Labeled target cells were culture with effector cells and the cytotoxicity against target cells were assessed using ^51Cr release cytotoxicity assay.
^51Cr Release Cytotoxicity Assay ^51Cr was purchased from Perkin Elmer (Santa Clara, Calif.). Standard ^51Cr release cytotoxicity assays were used to determine NK cell cytotoxic function in the experimental cultures. […] After a 4-hour incubation period, the supernatants were harvested from each sample and counted for released radioactivity using the gamma counter. Total (containing ^51Cr labeled target cells) and spontaneous (supernatants of target cells alone) release values were measured and used to calculate the percentage specific cytotoxicity. The percentage specific cytotoxicity was calculated using the following formula: […]
Lu30/10^6 is calculated by using the inverse of the number of effector cells needed to lyse 30% of target cells×100.

“Cetaximab: antibody against EGFR receptor” was tested. Which “ADCC against antibody treated OSCCs by expanded NK cells” value (expanded NK and IL2-reactivated expanded NK cells, day 15) did it give?
Its value is “did not mediate ADCC”.

And the “NK cell cytotoxicity against antibody treated vs untreated OSCCs (ADCC)” value (untreated and IL-2 treated primary NK cells)?
Its value is “higher levels of cytotoxicity”.
